Bioassay records as filed in PubChem BioAssay.
UUG fidelity = yeast start codon fidelity modulation | S. cerevisiae UUG-firefly luciferase reporter, luminescence/redox ratio | activity score, % at 18.7 µM | 350,000 tested, 0.13% active;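 active = replicate mean at a twofold rise or more, about +100% in these data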;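 also: firefly luciferase made from a UUG start codon reports start codon fidelity; reporter light over untreated wells divided by growth signal over untreated wells; some hits fall short of that in this replicate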
EWS-Fli inh = blocks EWS/Fli oncoprotein-driven transcription | A673 NR0B1-luciferase reporter, viability-normalised | inhibition, % at 12.6 µM | actives 0.67% (n = 350,000);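 active = mean inhibition of at least 50% after viability correction, with every replicate also passing that limit; inconclusive = mean reaches 50% but only one of two replicates passes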;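 also: firefly luciferase signal divided by Alamar Blue viability fluorescence both relative to DMSO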
CFTR F508del cor = CFTR F508del correction in bronchial cells; activity (quench increase), % at 7.58 µM; CFBE cells, YFP halide quenching; stimulated with forskolin plus potentiator P3; % fluorescence drop versus neutral controls; AID 720511; actives 0.36% (n = 350,000);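 active = mean added fluorescence quench of at least 8% versus neutral control, with both replicates also reaching 8%; inconclusive = only one of the mean or replicate conditions met; inactive = mean below 8% and not both replicates reaching 8%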;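 also: cells transiently co-express mutant CFTR-F508del with the halide-sensitive YFP; corrector assay measuring rescue of mutant channel to the surface after 24 h compound exposure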
PglD inh = blocks C. jejuni PglD acetyltransferase activity; purified PglD enzyme, DTNB colorimetric CoA detection; actives 0.098% (n = 360,000); AID 602405; inhibition, % at 12.5 µM; in the data active = inhibition above about 16%, passing the limit was not always enough; inconclusive = no clear call, values can overlap the other calls
LGR2 inh = Drosophila LGR2 receptor signaling inhibition. HEK293 LGR2, CRE-luciferase, bursicon-stimulated, 4 h. actives 0.35% (n = 380,000). inhibition, % at 9.99 µM. AID 720647;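 active = drop in luminescence signal, shown as inhibition above about 50% in the replicate tests, limit read from the data, passing the limit was not always enough; inconclusive = probably only some replicates passing the limit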;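 also: agonist challenge used bursicon conditioned medium at about half maximal strength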
miR-122 sensor = inhibitors of miR-122 in Huh7 cells. Huh7 miR-122 Renilla luciferase sensor, 48 h; neutral wells = 0, positive control = 100. activation (reporter increase), % at 12.5 µM. actives 0.3% (n = 340,000);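 active = mean replicate activation score at least 90 and every replicate individually at or above 90; inconclusive = only one of the two criteria met; inactive = neither criterion met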;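 also: higher luciferase means less miR-122 activity so hits act as miR-122 inhibitors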
A number is an active result; [ ] = remark or other dose. Rows were chosen to be rich in hits. Some 1.3% of all compounds tested hit in one or more screens of this group.

Results for CC(C)(C)c1ccccc1NC(=O)CN1C(=O)NC2(CCCCCC2)C1=O ?
UUG fidelity: inactive; EWS-Fli inh: inactive; CFTR F508del cor: 30; PglD inh: inactive; LGR2 inh: inactive; miR-122 sensor: inactive

What do the screens show for `CC(=O)Nc1ccc(-c2csc(NC(=O)CN3C(=O)NC4(CCCC4)C3=O)n2)cc1`?
UUG fidelity: inactive; EWS-Fli inh: inactive; CFTR F508del cor: 8.1; PglD inh: inactive; LGR2 inh: inactive; miR-122 sensor: inactive

How did Cc1ccccc1NC(=O)CN1C(=O)NC2(CCCCC2)C1=O do in these assays?
LGR2 inh: inactive; miR-122 sensor: inactive

Results for CC(C)[C@H](NC(=O)N1CCn2c1nc1ccccc12)C(=O)NCc1ccc(F)cc1 ?
UUG fidelity: inactive; EWS-Fli inh: inactive; CFTR F508del cor: inactive; PglD inh: inactive; LGR2 inh: inactive; miR-122 sensor: inactive

Results for O=C(C(Cl)c1ccccc1)N1CCCC1 (configuration not stated) ?
UUG fidelity: inactive; EWS-Fli inh: inactive; CFTR F508del cor: inactive; PglD inh: inactive; LGR2 inh: inactive; miR-122 sensor: inactive

Results for CCOc1ccc2c(c1)sc(N)[n+]2Cc1cc(C)cc2cccnc12 ?
UUG fidelity: inactive; EWS-Fli inh: inactive; CFTR F508del cor: inconclusive; PglD inh: inactive; LGR2 inh: inactive; miR-122 sensor: inactive

How did COc1ccc2c(c1)sc(N)[n+]2Cc1cc(C)cc2cccnc12 do in these assays?
UUG fidelity: inactive; EWS-Fli inh: inactive; CFTR F508del cor: 11; PglD inh: inactive; LGR2 inh: inactive; miR-122 sensor: inactive

Results for COc1cc(CNCCN2CCOCC2)ccc1OCc1ccc(Cl)cc1 ?
UUG fidelity: inactive; PglD inh: inactive; miR-122 sensor: inactive

What do the screens show for `COc1cc(CNCCCN2CCOCC2)cc(Br)c1OCc1ccc(Cl)cc1`?
UUG fidelity: inactive; EWS-Fli inh: inactive; CFTR F508del cor: inactive; PglD inh: inactive; LGR2 inh: 99; miR-122 sensor: inactive

How did COc1cccc(/C=C/C(=O)Nc2ccc3c(c2)OCCO3)c1OC do in these assays?
EWS-Fli inh: inactive; CFTR F508del cor: inactive; LGR2 inh: 61

Results for O=C(/C=C/c1cccc([N+](=O)[O-])c1)NC(=S)Nc1ccc(CN2CCOCC2)cc1 ?
UUG fidelity: inactive; EWS-Fli inh: inactive; PglD inh: inactive; LGR2 inh: inactive; miR-122 sensor: inactive

Results for CN(C)CCCN(C(=O)c1ccco1)c1nc(-c2ccc(Cl)cc2)cs1 ?
UUG fidelity: inactive; EWS-Fli inh: inactive; CFTR F508del cor: 8.1; PglD inh: inactive; LGR2 inh: inactive; miR-122 sensor: inactive

What do the screens show for `Cc1ccc(-c2csc(N(CCCN(C)C)C(=O)c3ccco3)n2)cc1`?
EWS-Fli inh: inactive; CFTR F508del cor: inactive; LGR2 inh: inactive

How did C[C@H](CO)N1C[C@H](C)[C@@H](CN(C)CC2CC2)OCc2cnnn2CCCC1=O do in these assays?
UUG fidelity: inactive; EWS-Fli inh: inactive; CFTR F508del cor: inactive; PglD inh: inactive; LGR2 inh: inactive; miR-122 sensor: inactive

Results for COc1ccc(C2(CNC(=O)c3ccccc3)CCCC2)cc1OC ?
UUG fidelity: inactive; EWS-Fli inh: inactive; CFTR F508del cor: inactive; PglD inh: inactive; LGR2 inh: inactive

What do the screens show for `Nc1nn(S(=O)(=O)c2ccccc2)cc1-c1ccc([N+](=O)[O-])cc1`?
UUG fidelity: inactive; EWS-Fli inh: 83; PglD inh: inactive; LGR2 inh: inactive; miR-122 sensor: inactive

How did Cc1ccc(S(=O)(=O)n2cc(-c3ccccc3)c(N)n2)cc1 do in these assays?
UUG fidelity: inactive; PglD inh: inactive; LGR2 inh: inactive; miR-122 sensor: inactive

Results for Cc1cc2c(cc1C)C(c1ccccc1OC(C)C)CC(=O)N2 (configuration not stated) ?
UUG fidelity: inactive; EWS-Fli inh: inactive; CFTR F508del cor: 12; PglD inh: inactive; LGR2 inh: inactive

What do the screens show for `COc1ccccc1C1CC(=O)Nc2cc(C)c(C)cc21` (configuration not stated)?
UUG fidelity: inactive; EWS-Fli inh: 54; CFTR F508del cor: inconclusive; PglD inh: inactive; LGR2 inh: inactive

How did Cc1nn(C)cc1CN(C)C(=O)c1cc(COc2ccc(F)cc2F)on1 do in these assays?
UUG fidelity: inactive; EWS-Fli inh: inactive; CFTR F508del cor: inactive; PglD inh: inactive; LGR2 inh: inactive; miR-122 sensor: inactive

Results for CCOc1ccc(C(=O)Nc2ccccc2-c2ccccc2)cc1Cl ?
UUG fidelity: inactive; PglD inh: inactive; LGR2 inh: inactive; miR-122 sensor: inactive

What do the screens show for `Cc1c(NC(=O)c2ccc(-c3ccccc3)cc2)cccc1C(=O)O`?
UUG fidelity: inactive; EWS-Fli inh: inactive; CFTR F508del cor: inactive; PglD inh: inactive; LGR2 inh: 56; miR-122 sensor: inactive

Results for CCOc1ccc(C(=O)Nc2cccc(C(=O)O)c2C)cc1Cl ?
EWS-Fli inh: inactive; LGR2 inh: 70; miR-122 sensor: inactive

How did CCOC(=O)CSc1nnc(Cc2cc(=O)[nH]c(=O)[nH]2)n1-c1cccc(OC)c1 do in these assays?
UUG fidelity: inactive; PglD inh: inactive; LGR2 inh: inactive; miR-122 sensor: inactive

How did C[C@@H]1CN([C@H](C)CO)C(=O)c2cccc(NC(=O)c3ccc(-c4nccs4)cc3)c2O[C@@H]1CN(C)Cc1ccc(C(=O)Nc2ccccc2N)cc1 do in these assays?
UUG fidelity: inactive; EWS-Fli inh: inactive; CFTR F508del cor: inactive; PglD inh: inactive; LGR2 inh: inactive; miR-122 sensor: 203[16.7 µM]

Results for C[C@H]1CN([C@@H](C)CO)C(=O)c2cccc(NC(=O)c3ccc(-c4nccs4)cc3)c2O[C@H]1CN(C)Cc1ccc(C(=O)Nc2ccccc2N)cc1 ?
UUG fidelity: inactive; EWS-Fli inh: inactive; CFTR F508del cor: inactive; PglD inh: inactive; LGR2 inh: inactive; miR-122 sensor: inactive

How did CNC[C@H]1Oc2c(NC(=O)c3nc4ccccc4s3)cccc2C(=O)N([C@H](C)CO)C[C@@H]1C do in these assays?
EWS-Fli inh: 58; CFTR F508del cor: inactive; LGR2 inh: inactive; miR-122 sensor: inactive

Results for C[C@H]1CN([C@@H](C)CO)C(=O)c2cccc(NC(=O)c3ccc(-c4nccs4)cc3)c2O[C@@H]1CN(C)C ?
UUG fidelity: inactive; EWS-Fli inh: inactive; CFTR F508del cor: inactive; PglD inh: 21; LGR2 inh: inactive; miR-122 sensor: inactive

How did CC(=O)c1cccc(NC(=O)C2C3C=CC(C3=C(c3ccccc3)c3ccccc3)C2C(=O)O)c1 (configuration not stated) do in these assays?
UUG fidelity: inactive; EWS-Fli inh: inactive; CFTR F508del cor: inactive; PglD inh: inactive; LGR2 inh: inactive

What do the screens show for `CC(=O)Nc1ccc(S(=O)(=O)N2c3ccccc3C(C)=CC2(C)C)cc1`?
EWS-Fli inh: inactive; CFTR F508del cor: 9.5; LGR2 inh: inactive
